Laboratory results as given in ChEMBL document CHEMBL5113521, “Discovery of a Novel Oral Proteasome Inhibitor to Block NLRP3 Inflammasome Activation with Anti-inflammation Activity” (J Med Chem, 2022).
pIC50: −log10 of the molar value.

Protein sequences, listed by entry. Tags and fused reporters are not part of them. Lines headed by an entry give the natural chain unless they say otherwise; changes in a name come on top.
UniProt P28074: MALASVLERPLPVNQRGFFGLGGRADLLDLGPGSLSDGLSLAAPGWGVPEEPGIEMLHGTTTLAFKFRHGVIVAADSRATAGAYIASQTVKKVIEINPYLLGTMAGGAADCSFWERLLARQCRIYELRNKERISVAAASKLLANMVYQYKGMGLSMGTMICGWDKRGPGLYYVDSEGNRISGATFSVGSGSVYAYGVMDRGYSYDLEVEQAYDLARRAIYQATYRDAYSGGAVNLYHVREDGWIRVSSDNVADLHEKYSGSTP

Target: Proteasome Macropain subunit MB1 (Homo sapiens, UniProt P28074)
Assay: Inhibition of 20S proteasome beta5 subunit (unknown origin) using Suc-LLVY-AMC as flurogenic substrate measured after 1 hr by fluorescence based analysis

- pIC50: 8.54
Compound: CC(C)C[C@H](NC(=O)CNC(=O)c1cc(Cl)ccc1Cl)B(O)O [IXAZOMIB]
